The list shows a part of the results, in another mix than the full data. Activity calls are given as the source filed them. Rule as the data show it: active = activation above about 7.5%; inactive = the rest.
test system: Methionine sulfoxide reductase A (Bos taurus); experiment: bovine MsrA enzyme activators, primary screen, biochemical, absorbance, HTS (AID 602163); settings: purified bovine MsrA, absorbance read-out; at 10.6 µM; hits give high values;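 also: 0% = vehicle and 100% = reference activator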

Question: With `COC(=O)C1(C)COP(=O)(N2CCCC2)OC1` (stereo not drawn) as the compound, how does the activation read?
Answer: Its activation is inactive: -1.82%.

Question: For `COP1(=S)c2c(C)nn(CCC#N)c2N=C(c2ccc(F)cc2)N1C` (stereo not drawn), which activation is on record?
Answer: Its activation is inactive: -1.59%.

Question: With `COc1ccc(N/C(=N/P(=O)(N2CCOCC2)N2CCOCC2)N2CCOCC2)cc1` as the compound, how does the activation read?
Answer: The activation was inactive: -2.47%.

Question: `O=[N+]([O-])c1cc(Oc2ccc([N+](=O)[O-])cc2C(F)(F)F)cc([N+](=O)[O-])c1` was tested. Which activation did it give?
Answer: The activation was inactive: 0.99%.

Question: Which activation does the source give for `COc1cc(I)ccc1[As](=O)(O)O` here?
Answer: The activation was inactive: -2.14%.

Question: Which activation does the source give for `COc1ccc2nc(NP(=O)(c3ccccc3)c3ccccc3)sc2c1` here?
Answer: Its activation is inactive: -4.01%.

Question: With `O=P1(N(CCCl)CCCl)OCCCN1CCCl` (stereo not drawn) as the compound, how does the activation read?
Answer: The activation was inactive: 1.08%.

Question: `O=P1(N(CCCl)CCCl)Nc2ccccc2N1` was tested. Which activation did it give?
Answer: The activation was inactive: -4.57%.

Question: How did the activation turn out when `Cc1cc(=O)[nH]c(N[N+](=O)[O-])n1` was run?
Answer: Its activation is inactive: -9.87%.

Question: `O=C(OC1CN2CCC1CC2)C12CC3CC(CC(C3)C1)C2` (stereo not drawn) was tested. Which activation did it give?
Answer: The activation was inactive: -1.52%.

Question: How did the activation turn out when `Cc1c2c(nc3ccccc13)SC(C(Cl)Cl)C2` (stereo not drawn) was run?
Answer: Its activation is inactive: -6.02%.

Question: `O=[N+]([O-])c1cc([N+](=O)[O-])c(-c2ccn[nH]2)s1` was tested. Which activation did it give?
Answer: The activation was inactive: -0.22%.

Question: Which activation does the source give for `CC(C)NC(=O)NP(=O)(Oc1ccccc1)Oc1ccccc1` here?
Answer: Its activation is inactive: -12.6%.

Question: For `O=C(OC1CN2CCC1CC2)c1cccc2[nH]cnc12` (stereo not drawn), which activation is on record?
Answer: Its activation is inactive: -6.77%.

Question: `CCN(CC)C(=S)SC(NC=O)C(Cl)(Cl)Cl` (stereo not drawn) was tested. Which activation did it give?
Answer: Its activation is inactive: -2.58%.

Question: For `COC(=O)C1(C)COP(=O)(N2CCCCCC2)OC1` (stereo not drawn), which activation is on record?
Answer: The activation was inactive: -2.21%.

Question: Which activation does the source give for `CC(C)c1ccc(OP(=O)(Nc2ccccn2)Oc2ccccc2F)cc1` (stereo not drawn) here?
Answer: Its activation is inactive: -11.7%.

Question: `ClCCSc1nnc(-c2cccnc2)o1` was tested. Which activation did it give?
Answer: The activation was inactive: 1.24%.

Question: Which activation does the source give for `Cc1ccc2nc3c(c(C)c2c1)CC(C(Cl)Cl)S3` (stereo not drawn) here?
Answer: The activation was inactive: -2.32%.

Question: Which activation does the source give for `[N-]=[N+]=NC1CCCCC1NC(=O)c1cc([N+](=O)[O-])cc([N+](=O)[O-])c1` (stereo not drawn) here?
Answer: The activation was inactive: 1.34%.

Question: Which activation does the source give for `Cc1ccc(OP(=O)(Nc2ccc([N+](=O)[O-])cn2)Oc2ccc(C)cc2)cc1` here?
Answer: The activation was inactive: -4.92%.

Question: How did the activation turn out when `O=[N+]([O-])c1ccc(-c2cc([N+](=O)[O-])c(O)c([N+](=O)[O-])c2)cc1` was run?
Answer: The activation was inactive: -10.1%.

Question: `COc1cc(C(=O)NCC2(N3CCOCC3)CCCCC2)ccc1OCC(C)C` was tested. Which activation did it give?
Answer: Its activation is inactive: -9.92%.

Question: How did the activation turn out when `O=[As](O)(c1ccc(O)cc1)c1ccccc1O` was run?
Answer: Its activation is inactive: -2.1%.

Question: How did the activation turn out when `C[As](=O)(O)c1cccc(C(=O)O)c1` was run?
Answer: The activation was inactive: 3.36%.

Question: For `CN(C(=O)Cc1ccc(Cl)c(Cl)c1)[C@H]1CC[C@@]2(CCCO2)C[C@@H]1N1CCCC1`, which activation is on record?
Answer: The activation was inactive: 1.74%.

Question: For `O=[N+]([O-])c1ccc2c(c1)nnn2O`, which activation is on record?
Answer: The activation was inactive: -10.2%.

Question: With `CN(C)C(=O)c1cc([N+](=O)[O-])cc2c1-c1c(cc([N+](=O)[O-])cc1[N+](=O)[O-])C2=O` as the compound, how does the activation read?
Answer: Its activation is inactive: -10.9%.

Question: Which activation does the source give for `CN(C(=O)Cc1ccccc1)[C@@H]1CC[C@]2(CCCO2)C[C@H]1N1CCCC1` here?
Answer: Its activation is inactive: -1.58%.

Question: How did the activation turn out when `CCOP1(=S)c2c(C)nn(CCC#N)c2N=C(c2ccc(F)cc2)N1C` (stereo not drawn) was run?
Answer: Its activation is inactive: -12.3%.

Question: With `N#CCCN(C(=O)COC(=O)C(O)(c1ccccc1)c1ccccc1)c1ccc(F)cc1` as the compound, how does the activation read?
Answer: Its activation is inactive: -3.12%.

Question: `NC(=O)Nc1ccc([As](=O)(O)O)cc1` was tested. Which activation did it give?
Answer: Its activation is inactive: -2.23%.

Question: `Nc1ccccc1[As](=O)(O)c1ccccc1` was tested. Which activation did it give?
Answer: Its activation is inactive: -4.92%.

Question: For `O=C(O)COc1ccc([As](=O)(O)O)cc1[N+](=O)[O-]`, which activation is on record?
Answer: The activation was inactive: -11.1%.

Question: How did the activation turn out when `CS(=O)(=O)c1cc([N+](=O)[O-])c2no[n+]([O-])c2c1` was run?
Answer: The activation was inactive: 1.05%.

Question: With `O=P(Nc1nccs1)(Oc1ccccc1)Oc1ccccc1` as the compound, how does the activation read?
Answer: Its activation is inactive: -8.94%.

Question: For `O=P(Nc1nccs1)(c1ccccc1)c1nc2ccccc2s1` (stereo not drawn), which activation is on record?
Answer: The activation was inactive: -3.3%.

Question: Which activation does the source give for `CCOP1(=S)c2c(C)nn(CCC#N)c2N=C(c2ccccc2F)N1C` (stereo not drawn) here?
Answer: The activation was inactive: -2.18%.

Question: Which activation does the source give for `CCOP(=O)(Nc1cccc2ccccc12)OCC` here?
Answer: Its activation is inactive: -1.06%.

Question: With `COc1cc(C2NCCC3(OCCO3)C2(C)C)cc(OC)c1OC` (stereo not drawn) as the compound, how does the activation read?
Answer: Its activation is inactive: 3.95%.

Question: With `CCCOP(=S)(Nc1nc(N)cc(=O)[nH]1)OCCC` as the compound, how does the activation read?
Answer: Its activation is inactive: -0.45%.

Question: `Nc1cccc2c([As](=O)(O)O)cccc12` was tested. Which activation did it give?
Answer: Its activation is inactive: -1.09%.

Question: Which activation does the source give for `Cc1ccc(NCCc2c([N+](=O)[O-])cc([N+](=O)[O-])cc2[N+](=O)[O-])cc1` here?
Answer: The activation was inactive: 2.44%.

Question: `Cc1cccc(OCC(=O)OC2CN3CCC2CC3)c1` (stereo not drawn) was tested. Which activation did it give?
Answer: The activation was inactive: -12.5%.

Question: For `O=[As](O)(c1cccc(O)c1)c1cccc(O)c1`, which activation is on record?
Answer: The activation was inactive: -7.19%.

Question: Which activation does the source give for `CS(=O)(=O)c1ccc(Cl)c(NC(=O)COC(=O)C(O)(c2ccccc2)c2ccccc2)c1` here?
Answer: Its activation is inactive: -3.37%.

Question: How did the activation turn out when `O=[As](O)(O)c1cccnc1` was run?
Answer: Its activation is inactive: -1.43%.

Question: How did the activation turn out when `COc1cc(C(=O)NCC2(N3CCOCC3)CCCCC2)cc(Cl)c1OC(C)C` was run?
Answer: The activation was inactive: -3.66%.

Question: How did the activation turn out when `O=C(OC1CN2CCC1CC2)c1ccc(Cl)cc1` (stereo not drawn) was run?
Answer: The activation was inactive: -3.54%.

Question: With `CC1(CBr)Cn2c(nc3ccccc3c2=O)S1` (stereo not drawn) as the compound, how does the activation read?
Answer: The activation was inactive: -3.62%.

Question: Which activation does the source give for `CC(C)/C=N\N=C(\N)N[N+](=O)[O-]` here?
Answer: The activation was inactive: -1.81%.

Question: For `COc1ccccc1CNC(=O)COC(=O)C(O)(c1ccccc1)c1ccccc1`, which activation is on record?
Answer: Its activation is inactive: -2.45%.

Question: Which activation does the source give for `CC(C)(C)C(=O)NC(Sc1ncccn1)C(Cl)(Cl)Cl` (stereo not drawn) here?
Answer: Its activation is inactive: 3.34%.

Question: With `O=P1(N(CCCl)CCCl)NCCC(C(F)(F)F)O1` (stereo not drawn) as the compound, how does the activation read?
Answer: The activation was inactive: -2.78%.

Question: Which activation does the source give for `Clc1n[nH]nc1-c1nn[nH][15n]1` here?
Answer: Its activation is inactive: -3.29%.

Question: `CCOP(=O)(Nc1ccc(C)cn1)OCC` was tested. Which activation did it give?
Answer: The activation was inactive: -2.59%.

Question: With `CN(CCCl)Cc1cc(Cl)c(NC2=NCCN2)c(Cl)c1` as the compound, how does the activation read?
Answer: The activation was inactive: -2.03%.

Question: Which activation does the source give for `CCOP(=O)(NC(=NC(C)c1ccccc1)NC(C)c1ccccc1)OCC` (stereo not drawn) here?
Answer: The activation was inactive: -3.49%.

Question: How did the activation turn out when `O=P1(Nc2ccccn2)COc2ccccc2OC1` was run?
Answer: The activation was inactive: -9.2%.

Question: How did the activation turn out when `CCC1=CC2Cc3nc4ccc(Cl)cc4c(N)c3C(C1)C2` (stereo not drawn) was run?
Answer: The activation was inactive: -8.52%.

Question: For `O=[As](O)(c1cccs1)c1cccs1`, which activation is on record?
Answer: The activation was inactive: -3.02%.

Question: For `Cc1ccc(OCC(=O)OC2CN3CCC2CC3)cc1` (stereo not drawn), which activation is on record?
Answer: Its activation is inactive: -2.03%.

Question: For `O=P1(Nc2ccc(Br)cn2)COc2ccccc2OC1`, which activation is on record?
Answer: The activation was inactive: -0.3%.

Question: With `NS(=O)(=O)c1cccc(NC(=O)COC(=O)C(O)(c2ccccc2)c2ccccc2)c1` as the compound, how does the activation read?
Answer: Its activation is inactive: -1.78%.

Question: With `Nc1cccc([As](=O)(O)c2ccccc2)c1` as the compound, how does the activation read?
Answer: Its activation is inactive: -2.67%.

Question: For `O=P1(Nc2ncccn2)COc2ccccc2OC1`, which activation is on record?
Answer: Its activation is inactive: -1.72%.

Question: For `Cc1ccc(S(=O)(=O)N(CCCN)CCCc2c(C)nc(N)[nH]c2=O)cc1`, which activation is on record?
Answer: The activation was inactive: -6.89%.

Question: How did the activation turn out when `CCCC1OP(=O)(Nc2ccccc2)OCC1CC` (stereo not drawn) was run?
Answer: The activation was inactive: -1.18%.

Question: Which activation does the source give for `O=C(/C=C/c1ccccc1)OC1CN2CCC1CC2` (stereo not drawn) here?
Answer: Its activation is inactive: 2.52%.

Question: How did the activation turn out when `CN(C)C1(CNC(=O)c2ccc(S(C)(=O)=O)cc2)CCCCC1` was run?
Answer: Its activation is inactive: -4.98%.

Question: For `CC1CCC(C(C)C)C(OP(=O)(Nc2ccccn2)c2ccccc2)C1` (stereo not drawn), which activation is on record?
Answer: Its activation is inactive: -5.49%.

Question: How did the activation turn out when `Cc1ccc(C(=O)OC2CN3CCC2CC3)cc1` (stereo not drawn) was run?
Answer: The activation was inactive: -4.88%.

Question: For `Cc1nn(-c2ccccc2)c2c1P(=O)(N1CCOCC1)N(C)C(c1ccccc1)=N2` (stereo not drawn), which activation is on record?
Answer: The activation was inactive: -3.5%.

Reference: PubChem BioAssay AID602163 (The Scripps Research Institute Molecular Screening Center, 2012)
